The values below come from patent EP4834881A1, “QUINOLONE COMPOUNDS AND USE THEREOF” (dated 2026).

Amino acid sequences for entries named in this document (tags omitted).
UniProt Q96LB1, whole entry: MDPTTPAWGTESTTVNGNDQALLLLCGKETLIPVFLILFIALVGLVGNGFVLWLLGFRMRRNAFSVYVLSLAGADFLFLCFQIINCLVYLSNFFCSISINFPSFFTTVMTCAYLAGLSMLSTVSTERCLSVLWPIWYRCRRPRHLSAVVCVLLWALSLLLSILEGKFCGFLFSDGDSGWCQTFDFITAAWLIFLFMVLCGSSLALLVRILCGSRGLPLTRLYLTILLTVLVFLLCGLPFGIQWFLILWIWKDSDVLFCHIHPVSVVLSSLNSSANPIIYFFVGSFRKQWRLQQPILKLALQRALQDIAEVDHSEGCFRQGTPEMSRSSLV

Experiment [1] concerns BALB/c mice. The experiment in a line: Psoriasis model: imiquimod cream on mouse back, PASI score. Particulars: 4mg/g Topical application, once daily, mean ± SEM. Here is the method: (§1) Experimental animals: BALB/c mice, from Guangdong Vital River Laboratory Animal Technology Co., Ltd.
The clinical severity of psoriasis was assessed using the Psoriasis Area and Severity Index (PASI) score. The PASI scoring criteria for mice are as follows:
The hair on the back of the mice was shaved, and the application area was marked with a marker pen. Imiquimod cream (Supplier: Sichuan Mingxin Pharmaceutical, Lot No.: 24054002) was applied to the back of the mice for several consecutive days to establish a mouse model of psoriasis. Before daily application, the residual cream was removed using pure water.
Administration was initiated on the day of grouping, which was designated as D1, and was performed once daily for 8 consecutive days. The normal control group and the model control group were administered with vehicle alone under the same conditions. Mice were scored according to the PASI (Psoriasis area and severity index). The administration regimen for the mouse psoriasis model was as follows: […]

For experiment [2], the target named is human MRGPRX2 (Homo sapiens, UniProt Q96LB1). The experiment in a line: In vitro target binding assay: BRET between MRGPRX2-Nluc and Venus-β-arrestin1 in transfected HEK-293T cells, antagonist mode against agonist R-ZINC-3573 (EC80). The following applies: antagonism of agonist R-ZINC-3573 at EC80, net BRET. The text has this: Bioluminescence Resonance Energy Transfer (BRET) is an important biophysical technique for monitoring molecular interactions, and has been widely used to study protein-protein interactions in living cells. This technique requires the relevant proteins to be linked to an energy donor (such as luciferase) and an acceptor (such as a fluorescent protein). When a relevant drug molecule interacts with the protein, the protein structure alters, causing a change in the distance between the energy donor and the energy acceptor. The luminescence energy induced by the chemical reaction is transferred to the corresponding acceptor, resulting in increased acceptor emission, and generating a BRET signal. In this work, a DNA-synthesized target human MRGPRX2 and a donor luciferase Nluc (NanoLuc®Promega) (Supplier: Beijing Tsingke, Lot No.: SZ0171228-1), as well as an acceptor fluorescent protein Venus and the relevant test protein, namely human β-arrestin1 (ARRB1) (Supplier: Guangzhou Dahong Biotechnology, Lot No. HY22694-4396), were utilized, and were inserted into the eukaryotic expression vector plasmid pcDNA3.1(+) (Supplier: Qiyun Bio, Lot No.: QY2310) as fusion genes via a Linker sequence (GGSG). The cell line selected for the experiment was human embryonic kidney cells HEK-293T. The human embryonic kidney cell line HEK-293T was routinely cultured in 10 cm cell culture dishes using complete culture medium consisting of high-glucose DMEM medium supplemented with 10% (V/V) fetal bovine serum. Cells were seeded at 2×10^6 cells/10 cm dish on the first day of culture, and passaged every 72 h with the same number of cells. One day prior to transfection, cells were resuspended, counted, and seeded at a density of 2×10^6 cells/6 cm dish or 4×10^6 cells/10 cm dish. Transfection was carried out 16-24 h after seeding. Plasmids constructed with the fusion protein gene were transfected into the expression cell line, and the transfected cells were cultured under appropriate conditions for a period of time to allow sufficient expression of the fusion proteins. Transfection was performed by encapsulating plasmid DNA with PEI reagent, and the encapsulation process should to be carried out in Opti-MEM medium. The ratio of plasmid, PEI (Supplier: Yeasen Biotechnology, Lot No.: WP5430010), and Opti-MEM (Supplier: Gibco, Lot No.: 2883564) was 1:4:14 (W: W: V). The encapsulated plasmid was added to an appropriate amount of complete culture medium, amd gently mixed, which was then used to replace the existing culture medium of the previously plated cells. Cells were harvested 24 h after transfection. Subsequently, cells were resuspended using HBSS (Source: Biosharp, Lot No.: 24179687) and counted with a cell counter. The cells were diluted to a density of (3~5) ×10^5 cells/mL, and then seeded into a flat-bottom white 96-well microplate at 100 µ L/well, resulting in (3~5) ×10^4 cells per well. In each well, 10 µ L of antagonist compounds diluted with HBSS a different concentrations were added firstly, then the agonist compound at a specific concentration (EC80) was added. After reacting for 2 min, the substrate Furimazine (Supplier: TargetMol, Lot No.: 362434) at a final concentration of 10 µM was added. After reacting for another 2 min, the 96-well plate was placed in a PHERAstar FSX microplate reader (Supplier: BMG Labtech) to simultaneously measure the readings at wavelengths of 440 nm and 530 nm. Based on the fluorescence readings at 440 nm and 530 nm, the Ratio and net BRET were calculated. Ratio = Em530 nm / Em440 nm, and net BRET = Ratio co-transfection - Ratio single-transfection. The calculated net BRET values were inputted into GraphPad Prism 9, and curve fitting via nonlinear regression (four-parameter equation) and IC50 calculation were performed.

For experiment [3], the system named is BALB/c mice. The experiment in a line: Urticaria model: anti-dinitrophenyl antibody sensitization and dinitrofluorobenzene challenge; number of wheals, serum IgE and histamine (ELISA). Particulars: once daily, 6 days, mean ± SEM. Here is the method: Experimental animals: BALB/c mice, from Hangzhou Ziyuan Laboratory Animal Technology Co., Ltd
After random grouping, the back of the mice was shaved in advance, with a shaving area of about 2 cm × 2 cm. Except for the normal control group, mice in the remaining groups were sensitized via tail vein injection of an anti-dinitrophenyl monoclonal antibody (Supplier: Sigma-Aldrich, Lot No.: 0000241402) (0.2 ng/mL) at a dose of 0.5 mL per mouse. After 24 h, the mice in each sensitization modeling group were challenged by topically applying 50 µL of 0.15% dinitrofluorobenzene (Supplier: Shanghai Macklin, Lot No.: C14969320) to the dorsal side of both ears. The normal control group was injected and topically applied with normal saline under the same conditions.
The administration regimen for the mouse urticaria model was as follows (the normal control group and the model control group were administered with vehicle alone under the same conditions) (once daily):
Mouse IgE ELISA detection kit: purchased from Shanghai Enzyme-linked Biotechnology Co., Ltd., Lot No.: ml1037602.
Mouse histamine ELISA detection kit: purchased from Shanghai Enzyme-linked Biotechnology Co., Ltd., Lot No.: ml1001877.
Microplate reader, manufacturer BioTek, model: Epoch.

The test system of experiment [4] is C57BL/6 mice. The experiment in a line: Inflammatory bowel disease model: 3% DSS drinking water, DAI score. The following applies: mean ± SEM. Here is the method: Experimental animals: C57BL/6 mice, from Guangdong Vital River Laboratory Animal Technology Co., Ltd.
C57BL/6 mice were used. 3% DSS (Dextran Sulfate Sodium) (Supplier: MPBIO, Lot No.: YD11024) in water was prepared as drinking water for the mice.
During the experiment, the animals were weighed at a fixed time daily, and their status (including feces, mortality) was observed. The efficacy was evaluated by the DAI score. The details of the DAI scoring criteria are as follows: 0 point for normal stool, 1 point for soft but formed stool, 2 points for soft stool, 3 points for soft and wet stool, 4 points for loose stool; 0-1 point for no occult blood, 2 points for occult blood positive, 3 points for visible blood in stool, 4 points for severe fecal blood; 0 point for no weight loss or weight gain, 1 point for weight loss of 1%-5%, 2 points for weight loss of 6%-10%, 3 points for weight loss of 11%-15%, 4 points for weight loss > 15%. The sum of the scores for 3 items is the total DAI score, and the weighing and scoring were carried out every other day. […] The DAI scores are shown in Table 5, and the data are presented as mean + standard error of the mean (SEM): Table 5

The test system of experiment [5] is BALB/c mice. The experiment in a line: Atopic dermatitis model: MC903 (calcipotriol) on right ear, ear thickness. Particulars: 50 mg/kg BID p.o., mean ± SEM. Here is the method: as §1
MC903 (calcipotriol) (Supplier: TargetMol, Lot No.: 235760) was applied to the right ear of mice, once a day, for 14 consecutive days.
The animals were randomly divided into 6 groups before induction on D1. The model control group was administered with vehicle alone under the same conditions. Administration was carried out according to the following groups:
During the experiment period, the thickness of the right ear of the mice was measured. […] The data are presented as mean ± standard error of the mean (SEM).

Molecules are shown by their SMILES.

What is called IC50 is the midpoint of a concentration-inhibition curve. Low values mean higher potency, high ones lower potency. Turning to `CCCCCNS(=O)(=O)c1ccc(-c2c(F)cc3c(=O)c(C(=O)O)cn(C4CC4)c3c2OC)cc1`, the PASI score in experiment [1] (D1) is 0; in experiment [1] (D2) it was 0.5±0.3; in experiment [1] (D3), 1.6±0.3; in experiment [1] (D4), 3.0±0.4; in experiment [1] (D5) it was 3.7±0.3; in experiment [1] (D6) it was 4.6 ·. For the same compound, the PASI score in experiment [1] (D7) was 5.5 ·; in experiment [1] (D8), 6.7 ·. This compound came in with a half-maximal inhibitory concentration (IC50) in experiment [2] of 100 to 1000 nM.
Take `CCCCCCCNS(=O)(=O)c1ccc(-c2cc3c(cc2F)c(=O)c(C(=O)O)cn3CC)cc1`: the “Histamine Level” value in experiment [3] (4mg/kg Topical application) worked out at 6.5 ± 1.0 ng/mL; in experiment [3] (25mg/kg Oral), 5.6 ± 1.0 ng/mL. The “IgE Level” value in experiment [3] (4mg/kg Topical application) was found to be 14.9 ± 2.0 µg/mL; in experiment [3] (25mg/kg Oral) it was 10.5 ± 2.0 µg/mL. In addition, the IC50 in experiment [2] was 100 to 1000 nM. The DAI score in experiment [4] (D1, 20mg/kg QD p.o.) came to 0.00±0.00; in experiment [4] (D2, 20mg/kg QD p.o.) it was 1.2±1.0; in experiment [4] (D3, 20mg/kg QD p.o.) it was 2.0±1.2; in experiment [4] (D4, 20mg/kg QD p.o.), 3.1±1.0; in experiment [4] (D5, 20mg/kg QD p.o.) it was 3.7±1.0; in experiment [4] (D6, 20mg/kg QD p.o.) it was 4.7±1.4.
Consider `CCCCCCCNS(=O)(=O)c1ccc(-c2cc3c(cc2F)c(=O)c(C(=O)O)cn3C2CC2)cc1`, for which the “Histamine Level” value stood at 6.4 ± 1.0 ng/mL in experiment [3] (4mg/kg Topical application) and 6.9 ± 1.0 ng/mL in experiment [3] (25mg/kg Oral). In addition, the “IgE Level” value in experiment [3] (4mg/kg Topical application) was 14.8 ± 1.0 µg/mL; in experiment [3] (25mg/kg Oral) it was 17.3 ± 1.5 µg/mL. The IC50 in experiment [2] lay in the range of 100 to 1000 nM. Also, the DAI score in experiment [4] (D1, 20mg/kg QD p.o.) was 0.00±0.00; in experiment [4] (D2, 20mg/kg QD p.o.), 0.8±1.0; in experiment [4] (D3, 20mg/kg QD p.o.), 0.9±0.6; in experiment [4] (D4, 20mg/kg QD p.o.), 2.4±0.8. Besides, the “Right Ear Thickness of Mice” value in experiment [5] (D2) was determined as 0.19±0.04 mm; in experiment [5] (D4), 0.28 ± 0.04 mm; in experiment [5] (D6) it was 0.35 ± 0.04 mm; in experiment [5] (D8), 0.48 ± 0.04 mm; in experiment [5] (D10) it was 0.52 ± 0.04 mm; in experiment [5] (D12), 0.54 ± 0.04 mm. Moreover, in experiment [5] (D14), the “Right Ear Thickness of Mice” value amounted to 0.59 ± 0.03 mm.
